Laboratory results from ChEMBL document CHEMBL1158436, “In vitro inhibition of human erythrocyte glutathione reductase by some new organic nitrates” (Bioorg Med Chem Lett, 2009).

Amino acid sequences for entries named in this document (tags omitted). Residues count along the entry.
UniProt P00390, 44-522 limits assumed: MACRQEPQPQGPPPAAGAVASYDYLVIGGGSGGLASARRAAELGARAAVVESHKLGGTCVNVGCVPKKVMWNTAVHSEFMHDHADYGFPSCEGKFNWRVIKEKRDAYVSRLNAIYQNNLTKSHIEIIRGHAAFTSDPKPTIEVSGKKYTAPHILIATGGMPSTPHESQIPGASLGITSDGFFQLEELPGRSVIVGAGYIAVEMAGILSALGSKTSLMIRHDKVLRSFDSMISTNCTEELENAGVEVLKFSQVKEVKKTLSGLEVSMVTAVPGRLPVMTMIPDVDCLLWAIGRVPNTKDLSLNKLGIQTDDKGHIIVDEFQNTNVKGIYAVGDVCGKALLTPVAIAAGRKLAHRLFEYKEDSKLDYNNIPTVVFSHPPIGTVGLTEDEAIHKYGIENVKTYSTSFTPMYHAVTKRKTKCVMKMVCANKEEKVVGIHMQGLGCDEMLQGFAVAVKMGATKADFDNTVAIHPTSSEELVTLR

Each compound was assayed against Glutathione reductase, mitochondrial (Homo sapiens, UniProt P00390) (assay: Inhibition of human erythrocyte glutathione reductase).

Compound	IC50	Ki
O=[N+]([O-])OC1CC(O)C(O[N+](=O)[O-])CC1O (stereo unspecified)	8.71 µM	18.4 µM
O=[N+]([O-])OC1CC(O[N+](=O)[O-])C(O)CC1O (stereo unspecified)	8.1 µM	17.9 µM
O=[N+]([O-])OC1CCC(O[N+](=O)[O-])C(O)C1O (stereo unspecified)	7.17 µM	17.4 µM
